The target of assay [1] is T1, CRF1R (Homo sapiens, UniProt P34998).
T1 sequence (P34998 24-415): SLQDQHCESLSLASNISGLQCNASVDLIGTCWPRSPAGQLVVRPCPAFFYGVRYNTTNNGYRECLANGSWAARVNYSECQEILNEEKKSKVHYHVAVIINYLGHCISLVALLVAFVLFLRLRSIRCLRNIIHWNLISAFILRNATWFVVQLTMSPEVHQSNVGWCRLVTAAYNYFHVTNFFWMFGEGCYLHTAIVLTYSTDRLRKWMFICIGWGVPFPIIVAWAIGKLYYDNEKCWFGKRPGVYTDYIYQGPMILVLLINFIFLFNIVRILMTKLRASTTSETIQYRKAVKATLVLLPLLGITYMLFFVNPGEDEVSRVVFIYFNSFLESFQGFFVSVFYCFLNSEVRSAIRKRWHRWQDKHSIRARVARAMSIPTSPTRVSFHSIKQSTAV
The experiment in a line: CRF1R agonist activity (EC50 and Emax), called comparative CRF binding. Type of assay: cell-based. The settings on record: CRF1R EC50 (nM), CRF1R. The text has this:
(§1) The pharmacological activity and selectivity of the peptides of present invention can be determined using published test procedures. See, e.g, U.S. patent application Ser. No. 09/799,978. Because CRF2R and CRF1R are homologous proteins, it is expected that a certain proportion of agonists for CRF2R will also function as agonists of CRF1R. As discussed above, activation of CRF1R induces activation of the HPA axis since increased corticosteroid production leads to skeletal muscle atrophy. In most cases in which an increase in muscle mass or function is desired, it is not desirable to activate the HPA axis.
(§2) Because it is desirable to discriminate binding between CRF2R, as compared with CRF1R, the assays described above may be conducted using a cell, or membrane from a cell, which expresses only CRF2R or the assays can be conducted with a recombinant source of CRF2R. Cells expressing both forms of CRFR may be modified using homologous recombination to inactivate or otherwise disable the CRF1R gene. Alternatively, if the source of CRFR contains more than one CRFR type, the background signal produced by the receptor which is not of interest must be subtracted from the signal obtained in the assay. […] Known antagonists of CRFRs include, but are not limited to, antalarmin (CRF1R selective), antisauvagine-30 (CRF2R selective) and astressin (nonselective for CRF1R/CRF2R).
(§3) Cell-based assays include the steps of contacting cells which express CRF1R or CRF2R with a peptide of the present invention or control and measuring activation of the CRFR by measuring the expression or activity of components of the CRFR signal transduction pathways.
(§4) For example, after contact with a peptide of the present invention, lysates of the cells can be prepared and assayed for induction of cAMP. cAMP is induced in response to Gαs activation. Because Gαs is activated by receptors other than CRFR and because a test peptide may be exerting its effect through CRFRs or by another mechanism, two control comparisons are relevant for determining whether the peptide increases levels of cAMP via activation of a CRFR. One control compares the cAMP level of cells contacted with the peptide and the cAMP level of cells contacted with a control compound (i.e., the vehicle in which the peptide is dissolved).
(§5) In one example, cAMP induction is measured with the use of DNA constructs containing the cAMP responsive element linked to any of a variety of reporter genes can be introduced into cells expressing CRFRs. Such reporter genes include, but are not limited to, chloramphenicol acetyltransferase (CAT), luciferase, glucuronide synthetase, growth hormone, fluorescent proteins (e.g., Green Fluorescent Protein), or alkaline phosphatase. Following exposure of the cells to the peptide, the level of reporter gene expression can be quantitated to determine the peptide's ability to increase cAMP levels and thus determine the peptide's ability to activate the CRFR.
(§6) In addition to using cells expressing full length CRFRs, cells can be engineered which express CRFRs containing the ligand binding domain of the receptor coupled to, or physically modified to contain, reporter elements or to interact with signaling proteins. For example, a wild type CRFR or CRFR fragment can be fused to a G-protein resulting in activation of the fused G-protein upon agonist binding to the CRFR portion of the fusion protein. […] In addition, alternative pathways for induction of the CRE reporter could be eliminated to reduce basal levels.

The target of assay [2] is T2, CRF2R (Homo sapiens, UniProt Q13324).
T2 sequence (Q13324 1-411): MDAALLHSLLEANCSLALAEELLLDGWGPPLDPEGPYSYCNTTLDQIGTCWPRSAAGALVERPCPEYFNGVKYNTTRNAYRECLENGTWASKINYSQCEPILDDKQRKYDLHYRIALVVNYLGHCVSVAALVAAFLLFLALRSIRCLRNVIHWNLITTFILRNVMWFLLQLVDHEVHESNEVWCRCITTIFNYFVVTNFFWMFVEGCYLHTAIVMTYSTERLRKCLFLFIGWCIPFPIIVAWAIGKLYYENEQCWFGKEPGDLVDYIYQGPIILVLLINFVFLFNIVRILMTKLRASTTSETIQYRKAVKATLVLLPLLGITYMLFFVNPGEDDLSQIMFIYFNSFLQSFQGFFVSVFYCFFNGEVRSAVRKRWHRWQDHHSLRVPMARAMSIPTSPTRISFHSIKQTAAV
The experiment in a line: CRF2R agonist activity (EC50 and Emax), called comparative CRF binding. The settings on record: CRF2R EC50 (nM), CRF2R. Type of assay: cell-based.
Source text: as §1, §2, §3, §4, §5, §6

Take `CC[C@H](C)[C@H](NC(=O)[C@H](CCC(=O)O)NC(=O)[C@@H](NC(=O)[C@H](CCSC)NC(=O)[C@H](CCCCN)NC(=O)[C@H](CCCNC(=N)N)NC(=O)[C@H](CC(C)C)NC(=O)[C@H](CC(C)C)NC(=O)[C@H](CCC(N)=O)NC(=O)[C@H](Cc1ccccc1)NC(=O)[C@@H]1CCCN1C(=O)[C@H](CC(C)C)NC(=O)[C@H](CC(=O)O)NC(=O)[C@@H](NC(=O)[C@H](CO)NC(=O)[C@@H](NC(=O)[C@@H]1CCCN1C(=O)[C@@H]1CCCN1C(=O)CNC(=O)[C@@H]1CCC(=O)N1)[C@@H](C)CC)[C@@H](C)CC)[C@@H](C)CC)C(=O)N[C@@H](CCC(=O)O)C(=O)N[C@@H](CCCCN)C(=O)N[C@@H](CCC(N)=O)C(=O)N[C@@H](CCC(=O)O)C(=O)N[C@@H](CCCCN)C(=O)N[C@@H](CCC(=O)O)C(=O)N[C@@H](CCCCN)C(=O)N[C@@H](CCC(N)=O)C(=O)N[C@@H](CCC(N)=O)C(=O)N[C@@H](C)C(=O)N[C@H](C(=O)N[C@H](C(=O)N[C@@H](CC(N)=O)C(=O)N[C@@H](CCCNC(=N)N)C(=O)N[C@@H](CC(C)C)C(=O)N[C@@H](CC(C)C)C(=O)N[C@@H](CC(C)C)C(=O)N[C@@H](CC(=O)O)C(=O)N[C@H](C(=O)N[C@H](C(N)=O)C(C)C)[C@@H](C)O)[C@@H](C)O)[C@@H](C)O` [compound 16]: the EC50 in assay [1] amounted to 136 nM; in assay [2], 7.88 nM.

`CC[C@H](C)[C@H](NC(=O)[C@H](CCC(=O)O)NC(=O)[C@@H](NC(=O)[C@H](CCSC)NC(=O)[C@H](CCCCN)NC(=O)[C@H](CCCNC(=N)N)NC(=O)[C@H](CC(C)C)NC(=O)[C@H](CC(C)C)NC(=O)[C@H](CCC(N)=O)NC(=O)[C@H](Cc1ccccc1)NC(=O)[C@@H]1CCCN1C(=O)[C@H](CC(C)C)NC(=O)[C@H](CC(=O)O)NC(=O)[C@@H](NC(=O)[C@H](CO)NC(=O)[C@@H](NC(=O)[C@@H]1CCCN1C(=O)[C@@H]1CCCN1C(=O)CNC(=O)[C@@H]1CCC(=O)N1)[C@@H](C)CC)[C@@H](C)CC)[C@@H](C)CC)C(=O)N[C@@H](CCC(=O)O)C(=O)N[C@@H](CCCCN)C(=O)N[C@@H](CCC(N)=O)C(=O)N[C@@H](CCC(=O)O)C(=O)N[C@@H](CCCCN)C(=O)N[C@@H](CCC(=O)O)C(=O)N[C@@H](CCCCN)C(=O)N[C@@H](CCC(N)=O)C(=O)N[C@@H](CCC(N)=O)C(=O)N[C@@H](C)C(=O)N[C@H](C(=O)N[C@H](C(=O)N[C@@H](CC(N)=O)C(=O)N[C@@H](CCCNC(=N)N)C(=O)N[C@@H](CC(C)C)C(=O)N[C@@H](CC(C)C)C(=O)N[C@@H](CC(C)C)C(=O)N[C@@H](C)C(=O)N[C@H](C(=O)N[C@H](C(N)=O)C(C)C)[C@@H](C)O)[C@@H](C)O)[C@@H](C)O` [compound 17]: the figures for the EC50 in assay [1] and in assay [2] were 261 nM and 10.2 nM, respectively.

Turning to `CC[C@H](C)[C@H](NC(=O)[C@H](CCC(=O)O)NC(=O)[C@@H](NC(=O)[C@H](CCSC)NC(=O)[C@H](CCCCN)NC(=O)[C@H](CCCNC(=N)N)NC(=O)[C@H](CC(C)C)NC(=O)[C@H](CC(C)C)NC(=O)[C@H](CCC(N)=O)NC(=O)[C@H](Cc1ccccc1)NC(=O)[C@@H]1CCCN1C(=O)[C@H](CC(C)C)NC(=O)[C@H](CC(=O)O)NC(=O)[C@@H](NC(=O)[C@H](CO)NC(=O)[C@@H](NC(=O)[C@@H]1CCCN1C(=O)[C@@H]1CCCN1C(=O)CNC(=O)[C@@H]1CCC(=O)N1)[C@@H](C)CC)[C@@H](C)CC)[C@@H](C)CC)C(=O)N[C@@H](CCC(=O)O)C(=O)N[C@@H](CCCCN)C(=O)N[C@@H](CCC(N)=O)C(=O)N[C@@H](CCC(=O)O)C(=O)N[C@@H](CCCCN)C(=O)N[C@@H](CCC(=O)O)C(=O)N[C@@H](CCCCN)C(=O)N[C@@H](CCC(N)=O)C(=O)N[C@@H](CCC(N)=O)C(=O)N[C@@H](C)C(=O)N[C@H](C(=O)N[C@H](C(=O)N[C@@H](CC(N)=O)C(=O)N[C@@H](C)C(=O)N[C@@H](CCCNC(=N)N)C(=O)N[C@@H](CC(C)C)C(=O)N[C@@H](CC(C)C)C(=O)N[C@@H](C)C(=O)N[C@@H](CCCNC(=N)N)C(=O)N[C@H](C(N)=O)C(C)C)[C@@H](C)O)[C@@H](C)O` [compound 23], the EC50 in assay [1] was at least 1000 nM; in assay [2] it was 10.2 nM.

In the case of `CC[C@H](C)[C@H](NC(=O)[C@@H](NC(=O)[C@H](CC(=O)O)NC(=O)[C@H](CC(C)C)NC(=O)[C@H](CC(C)C)NC(=O)[C@H](CC(C)C)NC(=O)[C@H](CCCNC(=N)N)NC(=O)[C@H](CC(N)=O)NC(=O)[C@H](CC(N)=O)NC(=O)[C@H](C)NC(=O)[C@H](C)NC(=O)[C@H](CCC(N)=O)NC(=O)[C@H](CCC(N)=O)NC(=O)[C@H](CCCCN)NC(=O)[C@H](CCC(=O)O)NC(=O)[C@H](CCCCN)NC(=O)[C@H](CCC(=O)O)NC(=O)[C@H](CCC(N)=O)NC(=O)[C@H](CCCCN)NC(=O)[C@H](CCC(=O)O)NC(=O)[C@@H](NC(=O)[C@H](CCC(=O)O)NC(=O)[C@@H](NC(=O)[C@H](CCSC)NC(=O)[C@H](CCCCN)NC(=O)[C@H](CCCNC(=N)N)NC(=O)[C@H](CC(C)C)NC(=O)[C@H](CC(C)C)NC(=O)[C@@H](NC(=O)[C@@H](NC(=O)[C@@H]1CCCN1C(=O)[C@H](CC(C)C)NC(=O)[C@H](CC(=O)O)NC(=O)[C@@H](NC(=O)[C@H](CO)NC(=O)[C@@H](NC(=O)[C@@H]1CCCN1C(=O)[C@@H]1CCCN1C(=O)CNC(=O)[C@@H]1CCC(=O)N1)[C@@H](C)CC)[C@@H](C)CC)[C@@H](C)CC)[C@@H](C)O)[C@@H](C)CC)[C@@H](C)CC)[C@@H](C)O)C(N)=O` [compound 24], the EC50 was above 1000 nM in assay [1] and 43.2 nM in assay [2].

`CC[C@H](C)[C@H](NC(=O)[C@@H](NC(=O)[C@H](CC(=O)O)NC(=O)[C@H](CC(C)C)NC(=O)[C@H](CC(C)C)NC(=O)[C@H](CC(C)C)NC(=O)[C@H](CCCNC(=N)N)NC(=O)[C@H](CC(N)=O)NC(=O)[C@H](CC(N)=O)NC(=O)[C@H](C)NC(=O)[C@H](C)NC(=O)[C@H](CCC(N)=O)NC(=O)[C@H](CCC(N)=O)NC(=O)[C@H](CCCCN)NC(=O)[C@H](CCC(=O)O)NC(=O)[C@H](CCCCN)NC(=O)[C@H](CCC(=O)O)NC(=O)[C@H](CCC(N)=O)NC(=O)[C@H](CCCCN)NC(=O)[C@H](CCC(=O)O)NC(=O)[C@@H](NC(=O)[C@H](CCC(=O)O)NC(=O)[C@@H](NC(=O)[C@H](CCSC)NC(=O)[C@H](CCCCN)NC(=O)[C@H](CCCNC(=N)N)NC(=O)[C@H](CC(C)C)NC(=O)[C@H](CC(C)C)NC(=O)[C@H](CCC(N)=O)NC(=O)[C@H](CCC(N)=O)NC(=O)[C@@H]1CCCN1C(=O)[C@H](CC(C)C)NC(=O)[C@H](CC(=O)O)NC(=O)[C@@H](NC(=O)[C@H](CO)NC(=O)[C@@H](NC(=O)[C@@H]1CCCN1C(=O)[C@@H]1CCCN1C(=O)CNC(=O)[C@@H]1CCC(=O)N1)[C@@H](C)CC)[C@@H](C)CC)[C@@H](C)CC)[C@@H](C)CC)[C@@H](C)O)C(N)=O` [compound 198]: the half-maximal effective concentration (EC50) in assay [2] was found to be 29.9 nM.

What is called EC50 is the concentration needed to bring the measured effect to its halfway point.

(Values after US7632933B2, “Corticotropin releasing factor 2 receptor agonists” (priority 2002, dated 2009).)
